# Values of other authors as cited in patent US20230330042A1 (published 2023).
# Chains of the proteins cited; added tags and fusions are not shown.
# UniProt P23975, whole entry: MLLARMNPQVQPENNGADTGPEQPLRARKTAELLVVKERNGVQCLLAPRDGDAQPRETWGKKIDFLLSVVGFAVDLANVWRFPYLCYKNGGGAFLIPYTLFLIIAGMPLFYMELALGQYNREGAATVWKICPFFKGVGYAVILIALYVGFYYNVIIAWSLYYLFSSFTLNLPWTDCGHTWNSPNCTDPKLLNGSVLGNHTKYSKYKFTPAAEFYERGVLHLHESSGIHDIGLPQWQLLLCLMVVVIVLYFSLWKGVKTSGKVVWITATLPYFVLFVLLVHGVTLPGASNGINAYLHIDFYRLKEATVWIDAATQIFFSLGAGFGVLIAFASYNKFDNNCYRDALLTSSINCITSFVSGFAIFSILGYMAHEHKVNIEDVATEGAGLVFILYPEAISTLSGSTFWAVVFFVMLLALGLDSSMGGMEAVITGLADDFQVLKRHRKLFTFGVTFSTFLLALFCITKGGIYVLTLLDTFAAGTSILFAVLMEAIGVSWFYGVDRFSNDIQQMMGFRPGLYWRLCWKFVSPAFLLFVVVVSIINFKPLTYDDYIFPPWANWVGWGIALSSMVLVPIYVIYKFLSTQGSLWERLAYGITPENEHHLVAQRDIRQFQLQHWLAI
# Biological target: Noradrenaline reuptake (Homo sapiens, UniProt P23975)
# Conditions: read-out: Ki Noradrenaline; Mean value (n = 2-3); NA: no activity at 10 μmol/L
smiles,measurement,value
CN(C)CCCN1c2ccccc2CCc2ccccc21 [Imipramine],Ki,6.61 nM
